According to article PMC9974930 (Journal of medicinal chemistry, 2023):

System: mice
Settings: oral 200 mg / kg, seven consecutive days

`CCC(=O)N1CCCN(C(=O)C2CCCN(Cc3ccc(NC(=O)N[C@@]45C[C@@H]6C[C@@](C)(C[C@@](C)(C6)C4)C5)c(F)c3)C2)CC1` (stereo partly drawn) [G1, 1-((1r,3R,5S,7r)-3,5-Dimethyladamantan-1-yl)-3-(2-fluoro-4-((3-(4-propionyl-1,4-diazepane-1-carbonyl)piperidin-1-yl)methyl)phenyl)urea] was tested, and the “adverse events, survival status and body weight” value was “no adverse events were observed”.
